# AlphaSeq binding of Ab-14 light chain variants to a spike HR2 peptide

The measurements come from Engelhart et al. 2022 (doi:10.1038/s41597-022-01779-4) through the FLAb antibody collection.

Target: peptide PDVDLGDISGINAS, taken from heptad repeat 2 (HR2) of SARS-CoV-2 spike.

Ab-14 is the parent antibody, in scFv form: VH, then three GGGGS repeats, then VL. The heavy chain is unchanged in all variants.
VH: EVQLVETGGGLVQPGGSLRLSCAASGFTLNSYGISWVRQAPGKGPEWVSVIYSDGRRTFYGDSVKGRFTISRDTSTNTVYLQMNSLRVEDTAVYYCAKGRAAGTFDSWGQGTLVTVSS
VL: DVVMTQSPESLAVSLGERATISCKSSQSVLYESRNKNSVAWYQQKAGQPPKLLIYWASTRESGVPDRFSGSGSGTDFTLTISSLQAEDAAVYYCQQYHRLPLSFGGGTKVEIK

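The starting antibody came from a phage panning campaign against this peptide. Library AAYL50 holds single substitutions and randomly drawn double and triple substitutions in the CDRs. The scFvs were displayed on barcoded MATa yeast, the peptide on MATalpha yeast. Binding brings cells together so that they mate, and sequencing counts the barcode pairs among the diploids. Each replicate has its own calibration line, from reference interactions of the BCL2 family. Each pool was mated in three replicate cultures.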

Positions count from residue 1 of the parent VL; V39T puts T in place of V.
Every variant below is changed at H98 of the VL (sequential numbering).
Values are apparent Kd, the geometric mean of the replicates that gave a signal; lower means stronger binding.
"no signal" marks a missing value. The strain was present, yet no cells mated with the target were sequenced in any replicate, which points to weak or no binding.
As a blank, each scFv also met three strains without target: over library AAYL50, 18% of these pairings were detected, typically at 15 µM and seldom below 970 nM.
In this assay the parent's reference entry averaged 4.4 nM; its copy inside this library read 48 nM.

The variant V39T/H98I/L102P gave 150 µM (1 of 3 replicates).
The variant S26R/Y31R/H98P gave 6.2 µM (3 of 3 replicates).
The variant N35K/H98D gave 4.8 nM (3 of 3 replicates).
The variant S26I/V39I/H98M gave 7.7 nM (3 of 3 replicates).
The variant W56D/H98M gave 430 pM (3 of 3 replicates).
The variant S26Q/Q96W/H98D gave 58 nM (3 of 3 replicates).
The variant E61S/S62F/H98S gave 77 nM (3 of 3 replicates).
The variant A57E/H98I/L100G gave 110 µM (2 of 3 replicates).
The variant K24F/A57G/H98C gave 77 nM (3 of 3 replicates).
The variant Y97W/H98E/S103N gave 8.0 µM (2 of 3 replicates).
The variant S26A/A40L/H98I gave 41 µM (2 of 3 replicates).
The variant S26A/H98S gave 16 nM (3 of 3 replicates).
The variant H98S/L100W/P101N gave 6.9 nM (3 of 3 replicates).
The variant S58C/H98A/L102Y gave no signal (0 of 3 replicates).
The variant S26E/Y31E/H98Y gave 11 nM (3 of 3 replicates).
The variant H98P/R99M gave 130 nM (3 of 3 replicates).
The variant Q27K/S58V/H98I gave 2.9 µM (3 of 3 replicates).
The variant E32L/S33M/H98F gave 250 nM (3 of 3 replicates).
The variant K36A/H98L/L100W gave 29 nM (3 of 3 replicates).
The variant Y31K/H98T/L100T gave 6.4 µM (1 of 3 replicates).
The variant Q27T/H98Q/P101S gave 27 nM (3 of 3 replicates).
The variant N35C/S38H/H98N gave 410 nM (2 of 3 replicates).
The variant S28K/E32Q/H98D gave 43 nM (3 of 3 replicates).
The variant N35F/S58D/H98I gave no signal (0 of 3 replicates).
The variant V29N/Q96H/H98S gave 6.0 nM (3 of 3 replicates).
The variant E32T/K36H/H98R gave 11 µM (2 of 3 replicates).
The variant Q27C/S33R/H98V gave 1.4 µM (3 of 3 replicates).
The variant S26Y/S28C/H98V gave no signal (0 of 3 replicates).
The variant R60T/H98V/S103P gave no signal (0 of 3 replicates).
The variant K24N/S38T/H98W gave no signal (0 of 3 replicates).
The variant S33F/S38W/H98N gave no signal (0 of 3 replicates).
The variant S26K/Q96K/H98Y gave 120 nM (3 of 3 replicates).
The variant K24Y/S38N/H98E gave 6.4 nM (3 of 3 replicates).
The variant K24W/S38W/H98E gave 7.3 µM (1 of 3 replicates).
The variant R60H/H98A/L100F gave 160 nM (3 of 3 replicates).
The variant N37L/Q96A/H98T gave 480 nM (3 of 3 replicates).
The variant T59S/Y97G/H98K gave no signal (0 of 3 replicates).
The variant K24I/H98Q gave 16 nM (3 of 3 replicates).
The variant N35H/S62L/H98M gave 240 nM (3 of 3 replicates).
The variant S25Q/H98N gave 5.8 nM (3 of 3 replicates).
The variant S26T/S38L/H98N gave 33 µM (1 of 3 replicates).
The variant V29Y/S33V/H98S gave 34 nM (3 of 3 replicates).
The variant S28V/S62W/H98N gave 120 nM (2 of 3 replicates).
The variant A40T/H98C gave 11 µM (1 of 3 replicates).
The variant S26W/K36D/H98F gave 8.4 nM (3 of 3 replicates).
The variant K36G/H98I/L100W gave 54 nM (3 of 3 replicates).
The variant R34K/A57S/H98L gave 240 nM (3 of 3 replicates).

6 of these entries, quoted again:

{"changes": "R60T/H98V/S103P", "Kd": "no signal", "seen in": "0 of 3"}
{"changes": "S26K/Q96K/H98Y", "Kd": "120 nM", "seen in": "3 of 3"}
{"changes": "Q27T/H98Q/P101S", "Kd": "27 nM", "seen in": "3 of 3"}
{"changes": "E32T/K36H/H98R", "Kd": "11 µM", "seen in": "2 of 3"}
{"changes": "Y97W/H98E/S103N", "Kd": "8.0 µM", "seen in": "2 of 3"}
{"changes": "W56D/H98M", "Kd": "430 pM", "seen in": "3 of 3"}